Legend:
[1] = biological target: T1, Kappa-type opioid receptor (Homo sapiens, UniProt P41145); experiment: Functional activity at human kappa opioid receptor expressed CHO cells by [35S]GTPgammaS binding assay; assay type: cell-based; settings: filed as agonist
In short: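 Membranes from CHO cells stably expressing human κ receptor (15 µg protein/tube), 12 compound concentrations, 60 min at 30 °C in Tris-HCl/MgCl2/NaCl/EGTA buffer pH 7.4 with 3 µM GDP and […] [35S]GTPγS. Filtration count, expressed as % stimulation over basal, giving Emax and EC50. […] At least 3 experiments in triplicate.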

Sequences of proteins named here, by UniProt entry; tags and fusion partners are left off. A change or cut given only in a name is not applied to a line headed by its entry.
UniProt P41145: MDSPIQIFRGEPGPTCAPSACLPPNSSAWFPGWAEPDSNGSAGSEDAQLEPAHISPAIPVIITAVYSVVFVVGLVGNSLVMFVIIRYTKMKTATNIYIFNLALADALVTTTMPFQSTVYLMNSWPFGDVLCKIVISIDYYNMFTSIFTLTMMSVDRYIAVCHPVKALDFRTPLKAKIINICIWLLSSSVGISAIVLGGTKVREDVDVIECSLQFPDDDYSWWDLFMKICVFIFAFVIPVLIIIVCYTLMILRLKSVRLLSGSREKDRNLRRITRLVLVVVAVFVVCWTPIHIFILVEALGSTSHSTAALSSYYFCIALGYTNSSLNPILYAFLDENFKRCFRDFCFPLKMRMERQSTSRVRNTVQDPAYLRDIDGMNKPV
UniProt P35372, whole entry: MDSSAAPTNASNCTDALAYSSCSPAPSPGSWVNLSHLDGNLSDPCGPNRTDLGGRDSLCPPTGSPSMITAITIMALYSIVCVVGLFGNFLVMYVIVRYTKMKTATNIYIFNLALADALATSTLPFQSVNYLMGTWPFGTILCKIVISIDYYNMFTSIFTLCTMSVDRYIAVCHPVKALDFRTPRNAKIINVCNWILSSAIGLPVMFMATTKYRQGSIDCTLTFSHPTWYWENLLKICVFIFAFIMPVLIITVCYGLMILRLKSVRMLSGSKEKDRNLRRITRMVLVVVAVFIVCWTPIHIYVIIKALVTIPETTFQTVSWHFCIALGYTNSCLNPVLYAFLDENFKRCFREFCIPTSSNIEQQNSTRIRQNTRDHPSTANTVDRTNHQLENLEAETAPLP

[2] = biological target: T1, Kappa-type opioid receptor; experiment: biochemical; assay type: cell-based, CHO
Mu-type opioid receptor [3] = biological target: T2, Mu-type opioid receptor (Homo sapiens, UniProt P35372); experiment: biochemical; assay type: cell-based, CHO
Mu-type opioid receptor [4] = biological target: T2, Mu-type opioid receptor; experiment: Activity at human mu opioid receptor expressed in CHO cells by [35S]GTP-gamma-S binding assay; assay type: functional, cell-based

Oc1ccc2c(c1)[C@@]13CCCC[C@H]1[C@@H](C2)N(CC1CC1)CC3
Activity [1]: Agonist

Oc1ccc2c(c1)[C@]13CCCCC1[C@H](C2)N(CC1CC1)CC3 (single isomer, unassigned; (+))
Ki [2]: 480 nM

Oc1ccc2c(c1)[C@]13CCCCC1[C@H](C2)N(CC1CCC1)CC3 (single isomer, unassigned; (+))
Ki (Mu-type opioid receptor [3]): 60 nM

Oc1ccc2c(c1)[C@@]13CCCC[C@H]1[C@@H](C2)N(CC1CCC1)CC3 [BUTORPHAN]
IC50 (Mu-type opioid receptor [4]): 20 nM
